# scFv variants of Ab-14 (heavy chain) against a SARS-CoV-2 spike peptide

Data: MIT Lincoln Laboratory AlphaSeq set, Engelhart et al. 2022, doi:10.1038/s41597-022-01779-4, as distributed in FLAb.

Target peptide (SARS-CoV-2 spike, HR2 region): PDVDLGDISGINAS

The variants keep the light chain, the linker and the frameworks of Ab-14 (scFv order VH, a 15-residue (Gly4Ser)3 linker, VL).
VH: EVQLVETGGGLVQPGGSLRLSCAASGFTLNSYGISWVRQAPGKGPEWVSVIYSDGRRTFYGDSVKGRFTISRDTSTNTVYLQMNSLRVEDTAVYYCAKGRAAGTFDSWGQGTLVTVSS
VL: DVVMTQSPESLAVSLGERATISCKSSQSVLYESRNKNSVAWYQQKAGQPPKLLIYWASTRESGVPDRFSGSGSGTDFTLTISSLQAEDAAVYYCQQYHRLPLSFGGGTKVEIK

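In library AAYL49, one, two or three CDR residues were substituted; doubles and triples were drawn at random. The scFvs were displayed on barcoded MATa yeast, the peptide on MATalpha yeast. The frequency of each diploid, read from paired DNA barcodes, reflects how well the two displayed proteins bind. A regression on co-assayed BCL2-family reference pairs converts the normalised counts of each replicate to an apparent Kd. There are three technical replicates.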

Substitutions are numbered in sequence along the VH above, starting at 1 (not Kabat).
All variants listed here change A102 of the VH, counted from its first residue.
Kd is apparent (estimated from mating counts) and averaged on the log scale over replicates with a signal. Smaller is tighter.
"nd" marks a missing value. The strain was present, yet no cells mated with the target were sequenced in any replicate, which points to weak or no binding.
Empty control strains, which show no peptide, gave a signal in 15% of pairings with library AAYL49; the median was 11 µM and 95% of these signals were weaker than 680 nM. No background was subtracted. The control count says in how many pairings with the empty strains this scFv gave a signal.

With G26M/D62M/A102Q the result was nd (0 of 3 replicates; controls 0 of 9). For R56M/R57Y/A102K, the assay gave nd (0 of 3 replicates; controls 1 of 9). The variant I34W/Y52C/A102M gave 7.6 µM (1 of 3 replicates; controls 2 of 9). The variant G26D/A102T showed 61 nM (3 of 3 replicates; controls 3 of 9). The variant N30C/V50R/A102R showed nd (0 of 3 replicates; controls 2 of 9). The variant Y60E/A102L/G103T showed 13 µM (1 of 3 replicates; controls 1 of 9).

The variant T58W/A102V showed nd (0 of 3 replicates; controls 0 of 9). The variant L29V/A101R/A102E gave 42 µM (3 of 3 replicates; controls 8 of 9). The variant V50L/S53D/A102K showed nd (0 of 3 replicates; controls 2 of 9). The variant R100W/A102L showed nd (0 of 3 replicates; controls 0 of 9). For L29Y/N30D/A102E, the assay gave nd (0 of 3 replicates; controls 1 of 9). For R57N/S63M/A102H, the assay gave 150 µM (1 of 3 replicates; controls 1 of 9).

With T58I/S63Y/A102E the result was nd (0 of 3 replicates; controls 1 of 9). For A102V, the assay gave 26 nM (3 of 3 replicates; controls 0 of 9). The variant S63D/A102P showed 19 nM (3 of 3 replicates; controls 4 of 9). With A102P the result was 7.3 nM (3 of 3 replicates; controls 0 of 9). For F27M/A102P/S107A, the assay gave 710 nM (2 of 3 replicates; controls 0 of 9). The variant N30R/R56Y/A102Q showed 2.2 µM (1 of 3 replicates; controls 2 of 9).

The variant T28R/A102E gave 780 nM (3 of 3 replicates; controls 1 of 9). For S53A/G61M/A102C, the assay gave 14 µM (1 of 3 replicates; controls 2 of 9). The variant G33N/A102I showed 20 µM (1 of 3 replicates; controls 4 of 9). With T28G/S63R/A102E the result was 5.8 µM (1 of 3 replicates; controls 1 of 9). With T28L/V64G/A102R the result was 1.7 µM (2 of 3 replicates; controls 0 of 9). The variant L29H/A102F gave 2.4 µM (2 of 3 replicates; controls 2 of 9).

The variant A102S/F105G gave nd (0 of 3 replicates; controls 0 of 9). With N30I/R100K/A102I the result was nd (0 of 3 replicates; controls 0 of 9). For L29C/N30Q/A102K, the assay gave 1.6 µM (1 of 3 replicates; controls 0 of 9). For G61Q/A102C/T104D, the assay gave nd (0 of 3 replicates; controls 0 of 9). The variant T28F/G61P/A102C gave 6.7 µM (3 of 3 replicates; controls 6 of 9). The variant F27H/Y32H/A102D gave 1.5 µM (1 of 3 replicates; controls 4 of 9).

The variant G26R/S35I/A102S gave nd (0 of 3 replicates; controls 1 of 9). The variant F27W/K65F/A102I showed nd (0 of 3 replicates; controls 1 of 9). With G55S/V64A/A102T the result was 72 µM (2 of 3 replicates; controls 1 of 9). The variant L29D/G61Y/A102F gave nd (0 of 3 replicates; controls 0 of 9). For G55F/A102V/F105P, the assay gave nd (0 of 3 replicates; controls 6 of 9). With R57D/S63D/A102D the result was 290 µM (1 of 3 replicates; controls 3 of 9).

The variant F27K/D54A/A102K gave 18 µM (2 of 3 replicates; controls 6 of 9). For G33C/A102G, the assay gave 32 µM (3 of 3 replicates; controls 5 of 9). The variant R57Y/A102N/F105E gave nd (0 of 3 replicates; controls 1 of 9). The variant S35C/A102D showed nd (0 of 3 replicates; controls 1 of 9). The variant A101H/A102V showed 30 nM (3 of 3 replicates; controls 0 of 9). The variant D62Q/R100E/A102E gave 84 µM (1 of 3 replicates; controls 3 of 9).

From the list, the first 6 with no signal in any replicate:

The variant G26M/D62M/A102Q gave nd (0 of 3 replicates; controls 0 of 9).
The variant R56M/R57Y/A102K gave nd (0 of 3 replicates; controls 1 of 9).
The variant N30C/V50R/A102R gave nd (0 of 3 replicates; controls 2 of 9).
The variant T58W/A102V gave nd (0 of 3 replicates; controls 0 of 9).
The variant V50L/S53D/A102K gave nd (0 of 3 replicates; controls 2 of 9).
The variant R100W/A102L gave nd (0 of 3 replicates; controls 0 of 9).